Laboratory results published in paper PMC8765293, “Inhibitor-Resistant Mutants Give Important Insights into Candida albicans ABC Transporter Cdr1 Substrate Specificity and Help Elucidate Efflux Pump Inhibition” (Antimicrobial Agents and Chemotherapy, 2022).

Chains of the proteins cited; added tags and fusions are not shown. Lines headed by an entry give the natural chain unless they say otherwise; changes in a name come on top.
UniProt Q5ANA3: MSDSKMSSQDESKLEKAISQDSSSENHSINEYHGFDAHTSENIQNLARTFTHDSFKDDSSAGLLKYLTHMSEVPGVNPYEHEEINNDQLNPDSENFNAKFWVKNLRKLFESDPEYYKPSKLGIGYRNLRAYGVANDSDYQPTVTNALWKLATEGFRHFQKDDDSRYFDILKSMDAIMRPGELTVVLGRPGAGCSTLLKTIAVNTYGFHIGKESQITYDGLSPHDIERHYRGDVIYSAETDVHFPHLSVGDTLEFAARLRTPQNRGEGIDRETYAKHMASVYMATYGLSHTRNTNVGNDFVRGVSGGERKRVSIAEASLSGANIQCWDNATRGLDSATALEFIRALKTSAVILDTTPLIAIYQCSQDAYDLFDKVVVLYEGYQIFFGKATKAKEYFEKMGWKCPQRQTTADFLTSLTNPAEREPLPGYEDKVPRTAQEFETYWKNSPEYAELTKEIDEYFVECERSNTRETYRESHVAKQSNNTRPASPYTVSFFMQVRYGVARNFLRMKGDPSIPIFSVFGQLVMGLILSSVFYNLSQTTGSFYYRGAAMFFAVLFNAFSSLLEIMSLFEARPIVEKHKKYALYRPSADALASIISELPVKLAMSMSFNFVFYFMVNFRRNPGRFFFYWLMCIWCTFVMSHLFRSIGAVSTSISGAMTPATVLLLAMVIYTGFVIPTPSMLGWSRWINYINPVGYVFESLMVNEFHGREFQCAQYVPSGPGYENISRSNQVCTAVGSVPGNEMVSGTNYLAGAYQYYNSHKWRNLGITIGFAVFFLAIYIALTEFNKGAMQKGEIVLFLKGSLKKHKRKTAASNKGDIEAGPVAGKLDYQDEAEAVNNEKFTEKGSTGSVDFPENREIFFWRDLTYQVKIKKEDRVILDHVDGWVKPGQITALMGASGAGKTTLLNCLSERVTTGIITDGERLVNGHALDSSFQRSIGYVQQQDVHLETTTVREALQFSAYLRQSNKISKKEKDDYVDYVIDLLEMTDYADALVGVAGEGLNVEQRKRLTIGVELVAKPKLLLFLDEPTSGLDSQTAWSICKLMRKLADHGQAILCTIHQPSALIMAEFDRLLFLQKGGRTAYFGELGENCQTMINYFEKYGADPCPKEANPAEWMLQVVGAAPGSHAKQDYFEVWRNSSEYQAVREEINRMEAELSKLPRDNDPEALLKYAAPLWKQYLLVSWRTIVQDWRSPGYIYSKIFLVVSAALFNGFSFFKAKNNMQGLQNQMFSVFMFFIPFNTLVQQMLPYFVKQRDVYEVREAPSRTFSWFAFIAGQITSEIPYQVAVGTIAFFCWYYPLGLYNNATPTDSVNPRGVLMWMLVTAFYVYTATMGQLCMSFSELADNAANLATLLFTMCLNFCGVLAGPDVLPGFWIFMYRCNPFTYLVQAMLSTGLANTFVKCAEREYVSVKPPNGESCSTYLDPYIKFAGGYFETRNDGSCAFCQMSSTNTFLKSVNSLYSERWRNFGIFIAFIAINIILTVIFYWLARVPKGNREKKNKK

Target: wt Cdr1 ATPase activity (Candida albicans, UniProt Q5ANA3)
Type: biochemical

For beauvericin, the IC50 (read-out: IC50 for inhibition of Cdr1 ATPase activity, from Fig. 4) was 240 nM and the Ki (read-out: Ki (Cdr1 ATPase activity), Dixon plot) was 80 ± 10 nM.
